The text below walks through data of PubChem BioAssay AID2427 (National Center for Advancing Translational Sciences (NCATS), 2010).

Chains of the proteins cited; added tags and fusions are not shown. Lines headed by an entry give the natural chain unless they say otherwise; changes in a name come on top.
UniProt P15428: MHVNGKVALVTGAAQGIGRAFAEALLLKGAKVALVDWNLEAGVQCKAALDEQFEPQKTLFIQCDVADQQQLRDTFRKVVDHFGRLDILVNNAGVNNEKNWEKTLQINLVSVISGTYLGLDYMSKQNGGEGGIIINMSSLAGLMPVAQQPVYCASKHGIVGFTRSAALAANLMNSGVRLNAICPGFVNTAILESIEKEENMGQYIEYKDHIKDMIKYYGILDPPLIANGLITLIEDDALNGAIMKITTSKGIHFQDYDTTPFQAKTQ

Shown are results outside the selection of hits, which stands elsewhere. Calls of active or inactive are those of the source.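 Rule for the calls: active = melting temperature shift above 3 C; inconclusive = shift above 1 C but not above 3 C; inactive = the rest.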

The assay deals with 15-hydroxyprostaglandin dehydrogenase [NAD(+)] (Homo sapiens) (UniProt P15428). Kind of assay: Thermal Shift Assay for Inhibitors of HPGD (15-Hydroxyprostaglandin Dehydrogenase). Particulars: Recombinant HPGD thermal shift, SYPRO orange DSF, at 250 µM, stronger effect = higher value. As for the experimental part: Assay Overview: Human 15-Hydroxyprostaglandin dehydrogenase (HPGD) catalyzes the inactivation of prostaglandin E2, and plays a major role in cancer biology by antagonizing the oncogenic potential of cyclooxygenase type 2 (COX2). Studies to assess the stability of human 15-PGDH in presence of compounds was performed as described (Niesen et al., 2007) with variations. References 1. Myung SJ, Rerko RM, Yan M, Platzer P, Guda K, Dotson A, Lawrence E, Dannenberg AJ, Lovgren AK, Luo G, Pretlow TP, Newman RA, Willis J, Dawson D, Markowitz SD. 15-Hydroxyprostaglandin dehydrogenase is an in vivo suppressor of colon tumorigenesis. Proc Natl Acad Sci U S A. 2006 Aug 8;103(32):12098-102. 2. Yan M, Rerko RM, Platzer P, Dawson D, Willis J, Tong M, Lawrence E, Lutterbaugh J, Lu S, Willson JK, Luo G, Hensold J, Tai HH, Wilson K, Markowitz SD. 15-Hydroxyprostaglandin dehydrogenase, a COX-2 oncogene antagonist, is a TGF-beta-induced suppressor of human gastrointestinal cancers. Proc Natl Acad Sci U S A. 2004 Dec 14;101(50):17468-73. 3. […]
HPGD was diluted to a final assay concentration of 1 uM in 100 mM Tris buffer, pH 8.0, containing 0.01% Tween-20 and 1:1000 SYPRO orange dye. […] Heat denaturation curves were recorded using a RT-PCR instrument (Mx3005p, Agilent) applying a temperature gradient of 2 degree C/min. […]

As for `N#Cc1ccccc1CSc1nc2ncc(Br)cc2[nH]1`, the thermal shift (delta Tm) was active: 12.2 C. The thermal shift (delta Tm) (measured here: delta Tm with NADH cofactor) turned out to be 2.9 C.
